From patent publication US9051320B1, “Methods for the treatment of metabolic disorders by a selective small molecule autotaxin inhibitor” (PharmAkea, Inc., priority 2014, dated 2015)

Target: T1, human autotaxin (ATX) (Homo sapiens, UniProt Q13822)
T1 construct: ATX activity is assayed in concentrated conditioned media from Hep3B human hepatocellular carcinoma cells; endogenous in cells; host or cells: Hep3B human hepatocellular carcinoma cells (20-fold concentrated conditioned medium)
Assay: Human autotaxin assay (choline release from LPC, Hep3B conditioned media)
Assay type: biochemical
Settings: LPC 14:0 100 uM
Experimental: ATX activity is assayed in concentrated conditioned media from Hep3B human hepatocellular carcinoma cells by measuring the amount of choline released from the substrate, lysophosphatidylcholine (LPC) as it is cleaved to LPA. Conditioned media is collected from confluent Hep3B cells and concentrated 20-fold using Centriprep-30 filter devices (Millipore).

Cc1c(Sc2cccc(C(=O)O)c2F)c2ccc(Cl)c(F)c2n1CC(=O)N1CCC(O)(C(F)(F)F)C1 (single isomer, unassigned) [Compound E]
IC50: < 500 nM
